Results taken from PubChem BioAssay AID1576 (EPA DSSTox, 2009).
Activity calls are given as the source filed them.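 Rule for the calls: active = chemicals shown by follow-up kinetic tests to compete for rat estrogen receptor sites, with a measured inhibition constant; inconclusive = some binding seen but constant unmeasurable owing to poor solubility; inactive = no binding up to top dose, or binding unconfirmed.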

Amino acid sequences for entries named in this document (tags omitted).
UniProt P06211, whole entry, looked up: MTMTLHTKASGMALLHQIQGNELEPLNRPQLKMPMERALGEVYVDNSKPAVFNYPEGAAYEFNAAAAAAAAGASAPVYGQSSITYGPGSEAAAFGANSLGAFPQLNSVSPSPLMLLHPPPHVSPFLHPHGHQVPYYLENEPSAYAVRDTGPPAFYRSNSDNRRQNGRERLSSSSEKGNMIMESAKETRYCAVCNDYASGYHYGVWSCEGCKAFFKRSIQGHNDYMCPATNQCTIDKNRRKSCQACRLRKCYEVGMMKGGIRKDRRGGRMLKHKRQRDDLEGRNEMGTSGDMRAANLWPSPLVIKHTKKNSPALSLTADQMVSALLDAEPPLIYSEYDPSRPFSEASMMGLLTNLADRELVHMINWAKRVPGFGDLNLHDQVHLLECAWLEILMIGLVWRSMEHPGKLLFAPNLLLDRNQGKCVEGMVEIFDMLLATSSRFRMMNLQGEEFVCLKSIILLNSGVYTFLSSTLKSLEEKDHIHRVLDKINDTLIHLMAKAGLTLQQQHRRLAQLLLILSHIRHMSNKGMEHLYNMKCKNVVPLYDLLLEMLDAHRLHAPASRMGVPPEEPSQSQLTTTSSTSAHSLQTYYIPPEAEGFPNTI

Target: Estrogen receptor (Rattus norvegicus) (UniProt P06211)
Assay: DSSTox (KIERBL) EPA Estrogen Receptor Ki Binding Study (Laws et al.) Database
Settings: Rat uterine cytosol ER, 3H-estradiol competitive binding
Procedure: This study was conducted by EPA researchers to evaluate the validity of the rat uterine cytosolic (RUC) estrogen receptor (ER) competitive binding assay for use in the Endocrine Disruption Screening Program (EDSP). The assay measures the ability of radiolabeled 17-beta-estradiol (3H-E2) to bind with RUC ER in the presence of increasing concentrations of a test chemical. The goal is to employ this in vitro assay as a 1st tier screening tool for assessing the potential of structurally diverse environmental chemicals to bind to the ER, as well as to support research efforts to develop computational models to predict ER binding. A distinguishing feature of the present study was the use of secondary experimental analysis of binding curves and determination of Ki values to confirm that measured IC50 values corresponded to true positive results. The study concluded that a number of experimental conditions can confound interpretation of IC50 values obtained from the RUC ER-binding assay data and lead to false positive results. In particular, some chemical treatments likely alter the stability of the assay by changing the buffer pH, denaturing ER, or disrupting the ER binding kinetics. […] The chemicals used in this study were selected as part of a validation test for two Quantitative Structure-Activity Relationship (QSAR) models designed to predict ER binding [Fed. Reg. 67(250), 79618, Dec. 30, 2002]. Several hundred chemicals were initially screened, including approximately 100 chemicals selected from among the High Production Volume (HPV) chemicals included in EPA's Toxic Substances Control Act (TSCA) inventory that were predicted to be positive for ER binding, with the rest selected at random from the TSCA inventory. […] These chemicals were further evaluated in an ER competitive binding assay with secondary analysis to confirm true competitive inhibition and to determine an experimental Ki [U.S. EPA Contract 3D-5967-NTEX]. […]

| Compound | outcome |
| --- | --- |
| CCOC(=O)Cl | inactive; none |
| COP(=S)(Cl)OC | inactive; none |
| ClP(c1ccccc1)c1ccccc1 | inactive; none |
